{"source": "PubChem BioAssay AID1508586", "about": "(ICCB-Longwood Screening Facility, Harvard Medical School, 2020)", "note": "Only a part is listed here, and it is no random draw. The source made the active and inactive calls.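 How the source made its calls: active means mean z-score across replicates of 1.96 or higher in either the MELAS or the Rieske mutant cell line; inactive means the rest.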", "data": [{"experiment": "survival rescue of mitochondrial mutant cells in low glucose, primary screen, MELAS cybrids, Rieske KO mouse fibroblasts, CellTiter-Glo (AID 1508586);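 further: test concentration not given here; z relative to plate mean and SD of compound and empty wells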", "conditions": "MELAS cybrid survival, CellTiter-Glo 48 h, hits give high values", "values": [{"molecule": "CN(CCCl)CCCl", "z-score": "inactive: -0.17"}]}]}
